{"source": "patent US20200023036A1", "about": "“PHARMACEUTICAL COMPOSITION FOR PREVENTING OR TREATING INFLAMMATORY RESPIRATORY DISEASE CONTAINING FUSION PROTEIN IN WHICH CELL-PENETRATING PEPTIDE AND CTCTLA4 PEPTIDE ARE FUSED AS ACTIVE INGREDIENT” (IUCF-HYU (INDUSTRY-UNIVERSITY COOPERATION FOUNDATION HANYANG, priority 2017, published 2020)", "key": {"IL-13, IL-4 and IFN-γ": {"test_system": "IL-13, IL-4 and IFN-γ", "experiment": "Cytokine expression by ELISA in bronchoalveolar lavage and lung tissues, comparison with CTLA4-Ig (Test Example 5)", "type": "in vivo, BALB/c mice", "conditions": "10 μg intranasal together with GCE", "method": "The […] obtained by the method of 5) was homogenized using the T-PER tissue protein extraction reagent (Thermo Fisher Scientific, MA, US) to prepare a suspension. The suspension was incubated at 4° C. for 30 minutes and then centrifuged at 2500 rpm for 10 minutes. The supernatant was filtered with a 0.45-μm filter to analyze cytokine expression levels.\nThe mice reared according to 1) of Experimental methods were used. Specifically, 120 μg of GCE prepared according to 2) of Experimental methods was intranasally administered to the 8-week-old BALB/c mice twice a week for 3 weeks. 10 μg of dNP2-ctCTLA-4 (Example 2), CTLA4-Ig (Comparative Example 4) or a vehicle (PBS) was intranasally administered together when the GCE was administered to the mice.\n15 minutes after the experiment was completed, a bronchoalveolar lavage fluid (BALF) was obtained by injecting 1 mL of PBS twice to each animal (see 5) of Experimental methods).\nThe concentration of IL-13, IL-4 and IFN-γ was analyzed with the ELSISA kit and the result was normalized to the total protein concentration of the tissue. The protein concentration was quantified by the Bradford assay. n=5 per each group and the results are presented as mean±s.e.m. (standard error of mean). *p<0.05, **p<0.01."}, "[1]": {"test_system": "GCE-induced allergic asthma animal model", "experiment": "H&E lung tissue observation and airway epithelial thickness, comparison with CTLA4-Ig (Test Example 5)", "type": "in vivo, BALB/c mice", "conditions": "10 μg intranasal together with GCE"}, "[2]": {"test_system": "OVA (ovalbumin)-induced asthma animal model", "conditions": "intravenous or intraabdominal injection; cited from earlier work"}}}
{"substance": "Abatacept [CTLA4-Ig, reference compound]", "values": [{"measurement": "cytokine production as compared to the control group (sham)", "setting": "IL-13, IL-4 and IFN-γ", "value": 3, "unit": "times"}, {"measurement": "physiological features of the respiratory epithelium: cell infiltration and airway epithelium thickening (H&E)", "setting": "[1]", "value": "no inhibition of cell infiltration and airway epithelium thickening"}, {"measurement": "suppression of allergic airway inflammation (eosinophil infiltration, Th2 cytokine expression, serum IgE)", "setting": "[2]", "value": "effective in suppressing allergic airway inflammation"}]}
